Laboratory results reported in ChEMBL document CHEMBL4261587 (Eur J Med Chem, 2018).

Legend:
Homo sapiens [1] = organism: Homo sapiens; assay: Selectivity index, ratio of IC50 for recombinant full length human Dyrk1B to IC50 for recombinant full length human Dyrk1A
Homo sapiens [2] = organism: Homo sapiens; assay: Selectivity index, ratio of IC50 for recombinant human Haspin expressed in Baculovirus expression system to IC50 for recombinant full length human Dyrk1A expressed in Baculovirus expression system

Ratio IC50 (Homo sapiens [1]): 27
Ratio IC50 (Homo sapiens [2]): 2.5
SMILES: O=C(Cc1ccc(F)cc1)Nc1cncc(-c2cc(-c3cccnc3)cs2)c1
